Results published in ChEMBL document CHEMBL1149965, “Synthesis and biological evaluation of conformationally constrained bicyclic and tricyclic balanol analogues as inhibitors of protein kinase C” (Bioorg Med Chem Lett, 1995).

Tests used:
[1] = biological target: cAMP-dependent protein kinase (PKA) (Homo sapiens, UniProt P22694+P17612+P22612); test: Inhibition of Protein Kinase A; type: protein assay
[2] = biological target: T1, Protein kinase C epsilon type (Homo sapiens, UniProt Q02156); test: Inhibition of Protein kinase C epsilon
T1 sequence (Q02156 whole entry): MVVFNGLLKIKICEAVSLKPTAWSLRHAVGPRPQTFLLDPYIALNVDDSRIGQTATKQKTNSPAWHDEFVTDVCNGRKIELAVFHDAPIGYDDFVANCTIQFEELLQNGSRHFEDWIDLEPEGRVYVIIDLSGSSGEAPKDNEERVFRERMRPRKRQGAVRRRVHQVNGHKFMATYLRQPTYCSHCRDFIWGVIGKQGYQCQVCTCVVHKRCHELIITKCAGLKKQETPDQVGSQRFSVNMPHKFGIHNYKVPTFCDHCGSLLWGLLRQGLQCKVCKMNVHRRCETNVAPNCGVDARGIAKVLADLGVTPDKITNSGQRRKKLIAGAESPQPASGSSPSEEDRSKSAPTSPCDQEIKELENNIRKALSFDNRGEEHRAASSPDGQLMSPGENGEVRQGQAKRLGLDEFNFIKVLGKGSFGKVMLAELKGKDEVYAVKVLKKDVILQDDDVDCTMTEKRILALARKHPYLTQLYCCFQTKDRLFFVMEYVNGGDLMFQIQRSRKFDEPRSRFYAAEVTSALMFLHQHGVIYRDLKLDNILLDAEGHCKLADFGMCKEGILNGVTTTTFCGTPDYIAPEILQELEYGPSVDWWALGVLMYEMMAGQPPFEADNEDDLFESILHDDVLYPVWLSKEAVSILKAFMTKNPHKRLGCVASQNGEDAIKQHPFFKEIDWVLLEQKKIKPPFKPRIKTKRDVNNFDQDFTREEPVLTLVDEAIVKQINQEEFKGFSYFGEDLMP

## O=C(NC1CCC[C@@H]1OC(=O)c1cc(O)c(C(=O)c2c(O)cccc2C(=O)O)c(O)c1)c1ccc(O)cc1 (mixture of isomers)
[1]
  IC50: 30 nM

## O=C(N[C@@H]1CNCCCC1OC(=O)c1cc(O)c(C(=O)c2c(O)cccc2C(=O)O)c(O)c1)c1ccc(O)cc1 (mixture of isomers)
[2]
  IC50: 44 nM
